Values of other authors as cited in paper PMC3673949, “Small Molecule R1498 as a Well-Tolerated and Orally Active Kinase Inhibitor for Hepatocellular Carcinoma and Gastric Cancer Treatment via Targeting Angiogenesis and Mitosis Pathways” (PLoS ONE, 2013).

Tested on: HER2/neu overexpressing gastric adenocarcinomas
Design: method as in PMID 20728210
Settings: in combination with chemotherapy; chemotherapy alone 11.1 months; cited from earlier work

trastuzumab
median overall survival: 13.8 months
